In ChEMBL document CHEMBL1143970, “Structure-activity relationships and CoMFA of N-3 substituted phenoxypropyl piperidine benzimidazol-2-one analogues as NOP receptor agonists with analgesic properties” (Bioorg Med Chem, 2008):

Species on record: Homo sapiens
Experiment: Selectivity for human mu opioid receptor to human NOP receptor

For `COc1ccc(C)c(OC(CCN2CCC(n3c(=O)n(Cc4nnn[nH]4)c4ccccc43)CC2)C(C)C)c1` (centres undefined), the Selectivity ratio was 1.1.
`COc1ccc(C)c(OC(CCN2CCC(n3c(=O)n(Cc4ncn(C)n4)c4ccccc43)CC2)C(C)C)c1` (centres undefined) showed a Selectivity ratio of 1.
For `COc1ccc(C)c(OC(CCN2CCC(n3c(=O)n(Cc4ccccn4)c4ccccc43)CC2)C(C)C)c1` (centres undefined), the Selectivity ratio was 10.7.
For `COc1ccc(C)c(OC(CCN2CCC(n3c(=O)n(Cc4ncsn4)c4ccccc43)CC2)C(C)C)c1` (centres undefined), the Selectivity ratio was 58.9.
For `COc1ccc(C)c(OC(CCN2CCC(n3c(=O)n(Cc4noc(C(C)(C)C)n4)c4ccccc43)CC2)C(C)C)c1` (centres undefined), the Selectivity ratio was 0.4.
For `COc1ccc(C)c(OC(CCN2CCC(n3c(=O)n(Cc4c[nH]cn4)c4ccccc43)CC2)C(C)C)c1` (centres undefined), the Selectivity ratio was 57.5.
`COc1ccc(C)c(OC(CCN2CCC(n3c(=O)n(Cc4ncco4)c4ccccc43)CC2)C(C)C)c1` (centres undefined) showed a Selectivity ratio of 21.4.
Compound `COc1ccc(C)c(OC(CCN2CCC(n3c(=O)n(Cn4ccnc4C)c4ccccc43)CC2)C(C)C)c1` (centres undefined) has a Selectivity ratio of 25.1.
`COc1ccc(C)c(OC(CCN2CCC(n3c(=O)n(Cc4csc(C)n4)c4ccccc43)CC2)C(C)C)c1` (centres undefined) gave a Selectivity ratio of 2.2.
Compound `COc1ccc(C)c(OC(CCN2CCC(n3c(=O)n(Cc4noc(C)n4)c4ccccc43)CC2)C(C)C)c1` (centres undefined) has a Selectivity ratio of 5.8.
`COc1ccc(C)c(OC(CCN2CCC(n3c(=O)n(Cc4cnn[nH]4)c4ccccc43)CC2)C(C)C)c1` (centres undefined) gave a Selectivity ratio of 22.9.
For `COc1ccc(C)c(OC(CCN2CCC(n3c(=O)n(Cn4ccnc4)c4ccccc43)CC2)C(C)C)c1` (centres undefined), the Selectivity ratio was 28.8.
For `COc1ccc(C)c(OC(CCN2CCC(n3c(=O)n(Cc4cc(C)on4)c4ccccc43)CC2)C(C)C)c1` (centres undefined), the Selectivity ratio was 6.6.
`COc1ccc(C)c(OC(CCN2CCC(n3c(=O)n(Cc4cscn4)c4ccccc43)CC2)C(C)C)c1` (centres undefined) was tested, and the Selectivity ratio was 35.5.
